# Ab-95 light chain CDR variants: yeast mating affinities

The target is the same throughout: PDVDLGDISGINAS, from the HR2 region of SARS-CoV-2 spike.

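AAYL52 was designed without a model: most single CDR substitutions and a random sample of double and triple ones. The scFvs were displayed on barcoded MATa yeast, the peptide on MATalpha yeast. After mating in shaken culture at 30 °C for 16 h, diploids were selected and their barcode pairs sequenced. Scores were corrected for input abundance and mapped to Kd with protein pairs of known affinity run in the same pool. Mating was done three times.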

Parent scFv Ab-95: VH joined to VL by three GGGGS repeats. Changes lie in the light chain CDRs alone.
VH: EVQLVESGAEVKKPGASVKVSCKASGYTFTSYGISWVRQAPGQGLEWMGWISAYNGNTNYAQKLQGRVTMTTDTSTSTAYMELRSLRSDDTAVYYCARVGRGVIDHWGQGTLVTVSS
VL: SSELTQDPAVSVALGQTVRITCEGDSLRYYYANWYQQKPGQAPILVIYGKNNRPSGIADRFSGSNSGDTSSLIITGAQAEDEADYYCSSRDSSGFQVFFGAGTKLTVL

Changes read parent residue, position, new residue, counted from the first residue of the VL shown.
The read-out is the apparent dissociation constant on a log10 scale (nM): the lower, the stronger.
Averages over replicates are reported, and they cover detected replicates only.
"no signal" means that the variant was in the library but no mating with the target was seen in any replicate; the authors take this as a sign of poor binding, and no number exists.
Parent in this assay: reference entry 2.31, copy in this library 2.25.

| changes | log10 Kd (nM), mean | replicates with signal | empty controls |
|---|---|---|---|
| S89L/S92T/F98P | 3.64 | 3 of 3 | 1 of 9 |
| E23V/N33R/R90E | 4.13 | 2 of 3 | 2 of 9 |
| S93G/F95Q/Q96H | 2.92 | 3 of 3 | 4 of 9 |
| R28Q/R90M | 2.61 | 3 of 3 | 5 of 9 |
| N33S/V97P | 3.59 | 3 of 3 | 4 of 9 |
| S55E/R90W/Q96E | 2.16 | 3 of 3 | 5 of 9 |
| A32I/S89L/G94N | no signal | 0 of 3 | 1 of 9 |
| N33M/P54S/S92R | 4.42 | 1 of 3 | 3 of 9 |
| Y30P/K50I/S55W | 2.31 | 3 of 3 | 4 of 9 |
| D25A/R53W/F98E | no signal | 0 of 3 | 1 of 9 |
| E23M/N33H/P54Y | 4.92 | 2 of 3 | 3 of 9 |
| R28M/N51L/S93P | 4.12 | 2 of 3 | 3 of 9 |
| S26M/P54E | 2.30 | 3 of 3 | 2 of 9 |
| Y29F/N33P/G49W | 4.48 | 2 of 3 | 3 of 9 |
| L27K/K50R/F95Q | 4.73 | 3 of 3 | 1 of 9 |
| L27K/Y30N/D91I | 2.94 | 3 of 3 | 0 of 9 |
| D25Q/S26H/S89I | 3.17 | 3 of 3 | 1 of 9 |
| Y29V/N52S/R90C | 3.32 | 1 of 3 | 2 of 9 |
| S88N/S89Y | 2.19 | 3 of 3 | 0 of 9 |
| G24N/S55F/D91G | no signal | 0 of 3 | 2 of 9 |
| L27C/N52Y/V97K | 4.25 | 1 of 3 | 2 of 9 |
| Y30N/K50R/R90I | 1.36 | 3 of 3 | 3 of 9 |
| Y31E/N33Q/S88A | 1.55 | 3 of 3 | 5 of 9 |
| D25T/R28W/S93F | 3.06 | 1 of 3 | 4 of 9 |
| E23F/S92D/V97H | 3.74 | 3 of 3 | 1 of 9 |
| N52R/F95P | 3.95 | 2 of 3 | 1 of 9 |
| R53F/P54W/F95D | 2.91 | 1 of 3 | 3 of 9 |
| K50I/R90P/S92G | 4.33 | 1 of 3 | 2 of 9 |
| D25W/Y30G/F95M | 0.95 | 3 of 3 | 5 of 9 |
| Y30S/G94H/Q96H | 1.61 | 3 of 3 | 5 of 9 |

The remaining entries, values ahead:

| log10 Kd (nM), mean | replicates with signal | empty controls | changes |
|---|---|---|---|
| 3.05 | 2 of 3 | 5 of 9 | E23R/L27F/R90L |
| 2.91 | 3 of 3 | 7 of 9 | G24H/S88T |
| 2.11 | 3 of 3 | 5 of 9 | Y30G/R53N/Q96Y |
| no signal | 0 of 3 | 2 of 9 | N33L/G49R/S93N |
| no signal | 0 of 3 | 1 of 9 | R53K/S89P/Q96V |
| 3.93 | 3 of 3 | 3 of 9 | N51W/P54A/Q96M |
| no signal | 0 of 3 | 1 of 9 | E23Y/S92L/V97S |
| 3.17 | 3 of 3 | 2 of 9 | A32F/R53N/R90F |
| no signal | 0 of 3 | 4 of 9 | S89Y/S92G/G94Q |
| no signal | 0 of 3 | 1 of 9 | G24C/F95C/F98W |
| no signal | 0 of 3 | 2 of 9 | G24F/Y31C/S89Q |
| 3.85 | 3 of 3 | 4 of 9 | N51L/D91L/S92C |
| 3.92 | 1 of 3 | 4 of 9 | E23S/G49P/S89C |
| 1.46 | 3 of 3 | 5 of 9 | Y31Q/S55E/R90A |
| 3.84 | 3 of 3 | 0 of 9 | E23N/G24A/S93F |
| 3.80 | 1 of 3 | 2 of 9 | L27Q/A32C/S92P |
| 3.40 | 1 of 3 | 1 of 9 | A32D/P54H/S93L |
| 3.60 | 3 of 3 | 2 of 9 | F95K/F98W |
| no signal | 0 of 3 | 4 of 9 | N52S/G94N |
| 3.65 | 2 of 3 | 1 of 9 | N51G/V97I/F98V |
| no signal | 0 of 3 | 2 of 9 | N33M/G49T/R90V |
| no signal | 0 of 3 | 0 of 9 | L27G/R53P/V97W |
| 2.16 | 3 of 3 | 4 of 9 | D25S/F95T/Q96F |
| 3.75 | 1 of 3 | 3 of 9 | D25G/N51V |
| no signal | 0 of 3 | 0 of 9 | A32H/N51F/S93Q |
| 3.88 | 2 of 3 | 3 of 9 | E23I/N52V/R90P |
| 1.94 | 3 of 3 | 1 of 9 | S26N/Y29W/Y30V |
| 4.02 | 3 of 3 | 2 of 9 | G24A/D25R/Q96P |
| 2.12 | 3 of 3 | 2 of 9 | Y31D/P54C/F98M |
| 3.28 | 3 of 3 | 4 of 9 | Y29P/Y31V/F95T |
| no signal | 0 of 3 | 0 of 9 | S26L/S89C |

Three control strains display no target. For library AAYL52, 28% of the pairings with them gave a signal, with a median of 3.91 and one signal in twenty below 2.90, so weak values seen in few replicates may be background. Also given: how often the same scFv was detected with the empty control strains.

Reference: Engelhart et al. 2022, doi:10.1038/s41597-022-01779-4. File: FLAb, binding data.